The experiment addresses Histamine H1 receptor (Rattus norvegicus, UniProt P31390). The experiment in a line: Binding affinity to histamine H1 receptor in rat brain membranes was evaluated using [3H]-pyrilamine as radioligand. The format is cell membranes.

By UniProt entry, the sequences of proteins in these tests, tags left out.
UniProt P31390, whole entry: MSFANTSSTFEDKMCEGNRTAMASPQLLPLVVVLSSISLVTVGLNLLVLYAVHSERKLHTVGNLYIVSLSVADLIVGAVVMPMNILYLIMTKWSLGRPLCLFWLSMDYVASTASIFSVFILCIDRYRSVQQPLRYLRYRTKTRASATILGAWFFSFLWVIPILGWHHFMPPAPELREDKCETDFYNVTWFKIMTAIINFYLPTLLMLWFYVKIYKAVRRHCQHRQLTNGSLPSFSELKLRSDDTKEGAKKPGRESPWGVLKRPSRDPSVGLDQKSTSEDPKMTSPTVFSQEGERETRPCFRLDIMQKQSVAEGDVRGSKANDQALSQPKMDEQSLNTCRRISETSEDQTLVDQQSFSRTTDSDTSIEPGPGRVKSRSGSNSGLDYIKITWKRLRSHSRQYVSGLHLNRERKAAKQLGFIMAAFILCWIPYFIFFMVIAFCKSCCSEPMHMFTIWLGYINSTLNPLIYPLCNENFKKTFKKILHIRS

With `CN(C)CCC(c1ccc(Cl)cc1)c1ccccn1` (stereo unspecified) [CHLORPHENIRAMINE], affinity was put at a Ki of 5.5 nM. That is a single-digit nanomolar value.
